Drawing on BindingDB's records for 7932569 (Virginia Commonwealth University, 1994), this text covers Ki for one compound.

Sequences of proteins named here, by UniProt entry; tags and fusion partners are left off.
UniProt P42866, whole entry, looked up: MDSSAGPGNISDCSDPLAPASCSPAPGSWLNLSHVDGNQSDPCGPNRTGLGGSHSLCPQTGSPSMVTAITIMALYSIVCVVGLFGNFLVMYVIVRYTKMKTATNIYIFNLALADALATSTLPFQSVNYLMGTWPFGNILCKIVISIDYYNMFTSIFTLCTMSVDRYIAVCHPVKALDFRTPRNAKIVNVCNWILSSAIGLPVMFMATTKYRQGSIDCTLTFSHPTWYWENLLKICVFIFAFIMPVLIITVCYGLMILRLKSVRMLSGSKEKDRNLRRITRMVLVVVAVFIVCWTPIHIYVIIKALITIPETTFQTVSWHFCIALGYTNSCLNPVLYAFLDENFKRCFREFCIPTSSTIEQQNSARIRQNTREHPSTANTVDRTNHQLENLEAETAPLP

This assay deals with Mu-type opioid receptor (Mus musculus, UniProt P42866). The assay is described as follows: Binding affinity against opioid receptor by displacing radioligand [3HlU69,593.

One may read the Ki as a dissociation constant, usually derived from enzyme kinetics or from competition with a known ligand. Read a high Ki as a looser hold on the target. With `CN(C(=O)Cc1ccccc1)[C@H]1C[C@@]2(CCCO2)CC[C@@H]1N1CCCC1`, the Ki amounted to 1.2 nM.
